## Measured melting point values of organic chemicals

Data: OPERA 2.9 data sets, kmansouri/OPERA on GitHub.

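The numbers are reported measurements, compiled and curated for the OPERA QSAR suite. The files give a single number for a compound and property, which may rest on several reports. How each value was measured is not recorded, so precision varies. Where a salt, mixture or single isomer is drawn, the source does not say that exactly this form was tested. Some entries may be limits or estimates that an upstream database listed as plain numbers.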

The melting point is given in degrees Celsius.
"n/a" marks a cell with nothing listed here.
The databases behind each value are named after "via".

SMILES,name,mp (°C),via
O=C(O)c1cc(C(=O)O)cc(S(=O)(=O)O)c1,"5-Sulfobenzene-1,3-dicarboxylic acid",257.5,eChemPortal
O=c1[nH]c(CCl)nc2sc3c(c12)CCC3,n/a,234,OCHEM
COCC(CCC(C)C)(COC)C(C)C,"3,3-Bis(methoxymethyl)-2,6-dimethylheptane",-95.5,eChemPortal
O=C1CCCc2[nH]c(=O)c(C(=O)O)cc21,"2,5-Dioxo-1,2,5,6,7,8-hexahydroquinoline-3-carboxylic acid",290,OCHEM
C=C(Cl)C(Cl)CCl (stereo unspecified),"2,3,4-Trichloro-1-butene",-52,PubChem
O=C(OCCc1ccccc1)c1ccccc1,2-Phenylethyl benzoate,-8.57,eChemPortal
CC(C)(C)C(=O)N1CCNCC1,"1-(2,2-dimethylpropanoyl)piperazine",53,OCHEM
NNC(=O)CCN1CCCC1,3-(pyrrolidin-1-yl)propanehydrazide,138,OCHEM
O=C(O)Cc1cnn(-c2ccccc2)c1,(1-Phenyl-1H-pyrazol-4-yl)acetic acid,108,OCHEM
CCCCOc1cc(C(=O)NCCN(CC)CC)c2ccccc2n1,Dibucaine,100,PubChem
CC(C)C(NC(=O)Nc1ccccc1)C(=O)O (stereo unspecified),2-[(anilinocarbonyl)amino]-3-methylbutanoic acid,141,OCHEM
O=C(O)c1c(O)ccc(F)c1F,"2,3-Difluoro-6-hydroxybenzoic acid",182.5,OCHEM
O=C(O)c1nn(-c2ccccc2)c2c1CCC2,n/a,180,OCHEM
COCCCNS(=O)(=O)c1ccc([O-])c(/N=N/c2c([O-])ccc3ccccc23)c1.COCCCNS(=O)(=O)c1ccc([O-])c(/N=N/c2c([O-])ccc3ccccc23)c1.[Co+3].[Na+],n/a,252,eChemPortal
C=CC(=O)OCCOC(=O)NC1CC(C)(C)CC(C)(CN=C=O)C1 (stereo unspecified),n/a,-38,eChemPortal
Cc1cc(C(=O)O)c2ccc(F)cc2n1,7-Fluoro-2-methylquinoline-4-carboxylic acid,268,OCHEM
CC(=O)CC(=O)c1ccc(Br)cc1,"1-(4-bromophenyl)butane-1,3-dione",93,OCHEM
C=CCn1c(=S)[nH]c2ccccc21,1-allyl-1H-benzimidazole-2-thiol,110,OCHEM
O=C(O)CSc1ccc(Br)cc1,(4-Bromo-phenylsulfanyl)-acetic acid,118,OCHEM
CC1=NC(=C2C=CC(=O)C=C2)NO1,"4-(5-methyl-1,2,4-oxadiazol-3-yl)phenol",187,OCHEM
CCCC(=O)Nc1nc2ccc(N)cc2s1,"N-(6-amino-1,3-benzothiazol-2-yl)butanamide",183,OCHEM
CC(=O)CC(=O)c1ccc(Cl)cc1,"1-(4-chlorophenyl)butane-1,3-dione",69,OCHEM
CCOc1ccc(NC(=S)NN)cc1,N-(4-ethoxyphenyl)hydrazinecarbothioamide,180,OCHEM
CCO[Si](CNC1CCCCC1)(OCC)OCC,"Cyclohexanamine, N-[(triethoxysilyl)methyl]-",-80.15,eChemPortal
O=Cc1ccc(-c2ccc(Cl)cc2[N+](=O)[O-])o1,5-(4-Chloro-2-nitrophenyl)furfural,93,OCHEM
CC(=O)OCCN(CCOC(C)=O)c1ccc(/N=N/c2ccc([N+](=O)[O-])cc2C#N)cc1,Disperse Red 82,140.8,eChemPortal
C=CCNC(=O)c1ccccc1N,N-allyl-2-aminobenzamide,93,OCHEM
O=c1c2cc(Cl)ccc2nc2n1CCC2,"7-Chloro-2,3-dihydropyrrolo[2,1-b]quinazolin-9(1H)-one",181,OCHEM
COc1cc(C=O)c([N+](=O)[O-])cc1OCc1ccccc1,4-(Benzyloxy)-5-methoxy-2-nitrobenzaldehyde,131,OCHEM
O=C(O)c1ccccc1Cc1nc2ccccc2s1,"2-(1,3-benzothiazol-2-ylmethyl)benzoic acid",183,OCHEM
COc1cc(C#N)cc(OC)c1O,"Benzonitrile, 4-hydroxy-3,5-dimethoxy-",127,eChemPortal
Cc1ccc(C(C)C)c(OCC(=O)O)c1,2-(2-isopropyl-5-methylphenoxy)acetic acid,127,OCHEM
COc1cccc(C(=O)N(NC(=O)c2ccccc2)C(C)(C)C)c1,N'-Benzoyl-3-methoxy-N-(2-methyl-2-propanyl)benzohydrazide,188,OCHEM
O=C(OCc1ccccc1)N1CCC2(CC1)CNc1ccccc12,n/a,124,OCHEM
Cc1c(C(=O)O)oc2ccc(Br)cc12,5-bromo-3-methyl-benzofuran-2-carboxylic Acid,250,OCHEM
Clc1ccc(Nc2ccccc2)cc1,4-Chloro-N-phenylbenzenamine,74,OCHEM
O=C(Cl)C=Cc1cccc(C(F)(F)F)c1,3-(Trifluoromethyl)cinnamoyl chloride,29.5,OCHEM

Excerpt, the final 6 entries:

SMILES,name,mp (°C),via
Cc1ccc(C(C)C)c(OCC(=O)O)c1,2-(2-isopropyl-5-methylphenoxy)acetic acid,127,OCHEM
COc1cccc(C(=O)N(NC(=O)c2ccccc2)C(C)(C)C)c1,N'-Benzoyl-3-methoxy-N-(2-methyl-2-propanyl)benzohydrazide,188,OCHEM
O=C(OCc1ccccc1)N1CCC2(CC1)CNc1ccccc12,n/a,124,OCHEM
Cc1c(C(=O)O)oc2ccc(Br)cc12,5-bromo-3-methyl-benzofuran-2-carboxylic Acid,250,OCHEM
Clc1ccc(Nc2ccccc2)cc1,4-Chloro-N-phenylbenzenamine,74,OCHEM
O=C(Cl)C=Cc1cccc(C(F)(F)F)c1,3-(Trifluoromethyl)cinnamoyl chloride,29.5,OCHEM